Assays:
[1] = target: human 5-HT2C receptor (Homo sapiens, UniProt P28335); assay: PLC/[3H]-IP formation in CHO cells transiently transfected with human 5-HT2C cDNA; type: cell-based; conditions: at Emax concentration
[2] = target: human 5-HT2B receptor (Homo sapiens, UniProt P41595); assay: Radioreceptor saturation and competition binding, [3H]-mesulergine labeled 5-HT2B receptor membranes from transfected CHO-K1 cells; conditions: Hill slope, competition binding
[3] = target: T1, 5HT2A receptor (Homo sapiens, UniProt P28223); assay: PLC/[3H]-IP formation in CHO cells transiently transfected with human 5HT2A cDNA (agonist and antagonist mode); type: cell-based
[4] = target: T1, 5HT2A receptor; assay: Radioreceptor saturation and competition binding, [3H]-ketanserin labeled 5-HT2A receptor membranes from transfected CHO-K1 cells; conditions: Hill slope, competition binding

Sequences of proteins named here, by UniProt entry; tags and fusion partners are left off. Residues count along the entry.
UniProt P28335, 33-458 limits assumed: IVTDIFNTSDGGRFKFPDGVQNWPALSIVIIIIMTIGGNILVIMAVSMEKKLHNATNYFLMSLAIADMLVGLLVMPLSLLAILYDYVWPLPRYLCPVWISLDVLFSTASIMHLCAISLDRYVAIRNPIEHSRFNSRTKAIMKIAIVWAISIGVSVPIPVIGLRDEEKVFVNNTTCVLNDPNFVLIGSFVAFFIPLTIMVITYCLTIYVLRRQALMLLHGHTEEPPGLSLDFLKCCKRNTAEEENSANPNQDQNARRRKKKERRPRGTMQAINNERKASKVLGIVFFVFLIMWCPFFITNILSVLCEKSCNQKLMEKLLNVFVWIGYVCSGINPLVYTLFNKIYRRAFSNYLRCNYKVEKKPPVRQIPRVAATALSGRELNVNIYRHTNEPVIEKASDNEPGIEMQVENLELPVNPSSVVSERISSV
UniProt P41595, whole entry: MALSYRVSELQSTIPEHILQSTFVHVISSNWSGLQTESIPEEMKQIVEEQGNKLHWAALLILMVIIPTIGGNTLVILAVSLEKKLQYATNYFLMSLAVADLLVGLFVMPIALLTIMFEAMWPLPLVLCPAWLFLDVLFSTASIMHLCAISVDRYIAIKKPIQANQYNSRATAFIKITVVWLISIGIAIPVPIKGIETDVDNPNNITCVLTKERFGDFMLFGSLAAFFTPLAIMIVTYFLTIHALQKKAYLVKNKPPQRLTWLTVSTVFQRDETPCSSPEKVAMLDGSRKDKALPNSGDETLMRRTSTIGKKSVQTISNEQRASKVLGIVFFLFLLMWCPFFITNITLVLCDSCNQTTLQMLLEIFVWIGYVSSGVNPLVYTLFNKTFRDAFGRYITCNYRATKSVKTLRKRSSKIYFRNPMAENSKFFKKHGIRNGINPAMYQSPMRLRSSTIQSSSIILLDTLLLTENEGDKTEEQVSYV
UniProt P28223, whole entry: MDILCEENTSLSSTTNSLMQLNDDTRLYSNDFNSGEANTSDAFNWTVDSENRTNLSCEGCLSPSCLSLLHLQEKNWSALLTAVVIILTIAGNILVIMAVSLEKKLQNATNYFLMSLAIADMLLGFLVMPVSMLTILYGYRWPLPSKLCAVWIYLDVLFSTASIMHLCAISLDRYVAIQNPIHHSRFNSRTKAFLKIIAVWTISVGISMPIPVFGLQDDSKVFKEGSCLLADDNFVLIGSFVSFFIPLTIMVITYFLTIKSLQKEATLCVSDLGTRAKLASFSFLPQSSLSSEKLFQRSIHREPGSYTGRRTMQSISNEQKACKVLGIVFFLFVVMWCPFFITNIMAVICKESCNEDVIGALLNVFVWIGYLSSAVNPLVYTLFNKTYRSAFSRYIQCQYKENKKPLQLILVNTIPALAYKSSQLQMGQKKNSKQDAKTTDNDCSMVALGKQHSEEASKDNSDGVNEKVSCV

## CN(C)[C@@H]1Cc2ccccc2[C@@H](c2ccccc2)C1
[1]
  maximal PLC/[3H]-IP formation, 5-HT2C: 475 % basal control activity
[2]
  nH of 5-HT2B displacement curve: 1.1±0.1
[3]; (−)-trans-PAT 10 μM vs 5-HT 1.0 μM
  blockade of 5-HT-stimulated PLC/[3H]-IP formation, 5HT2A: fully blocked
[3]; concentrations up to 10 μM
  stimulation of PLC/[3H]-IP formation, 5HT2A: did not stimulate
[4]
  nH of 5HT2A displacement curve: 1.1±0.1

From patent publication US9862674B2, “Therapeutic compounds and methods of use” (University of Florida Research Foundation, Inc., priority 2007, dated 2018)
